## Antibody variant affinities, Ab-14 light chain, assay 1

Source: Engelhart et al. 2022 (doi:10.1038/s41597-022-01779-4), MIT Lincoln Laboratory and A-Alpha Bio; data file from the FLAb repository.

Target peptide (SARS-CoV-2 spike, HR2 region): PDVDLGDISGINAS

Each scFv is VH, a 15-residue (Gly4Ser)3 linker, VL, as in the parent Ab-14, and differs from it in the CDRs of the light chain only.
VH: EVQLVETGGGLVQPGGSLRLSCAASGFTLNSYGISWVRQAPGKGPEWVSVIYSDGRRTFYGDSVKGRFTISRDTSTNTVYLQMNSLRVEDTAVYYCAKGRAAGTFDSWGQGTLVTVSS
VL: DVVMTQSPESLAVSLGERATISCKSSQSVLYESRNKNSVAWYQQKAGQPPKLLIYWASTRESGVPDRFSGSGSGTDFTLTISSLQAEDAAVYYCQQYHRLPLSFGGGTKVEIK

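Phage display of a naive human antibody library on the peptide gave the parent. The library (AAYL50) carries one to three amino acid substitutions per variant, with no insertions or deletions. AlphaSeq pools MATa yeast showing the antibodies with MATalpha yeast showing the peptide. Binding brings cells together so that they mate, and sequencing counts the barcode pairs among the diploids. Each replicate has its own calibration line, from reference interactions of the BCL2 family. Mating was done three times.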

Changes read parent residue, position, new residue, counted from the first residue of the VL shown.
Scale: log10 of Kd in nM, estimated from mating counts; low values are strong binders.
Averages over replicates are reported, and they cover detected replicates only.
A pair that was not seen in that replicate is written "n.d."; this usually means weak binding, but a binder can also be missed.

| changes | log10 Kd, replicates | log10 Kd (nM), mean | empty controls |
|---|---|---|---|
| S28K S38V S62H | n.d. / n.d. / 3.35 | 3.35 | 0/9 |
| R34L E61C H98T | 0.67 / 0.89 / 0.86 | 0.81 | 2/9 (5.37) |
| S26M S28H S38I | n.d. / 2.76 / n.d. | 2.76 | 1/9 (4.02) |
| E61P P101V S103K | 1.47 / 1.82 / 1.96 | 1.75 | 1/9 (4.45) |
| S25D L100E P101S | n.d. / n.d. / n.d. | n.d. | 0/9 |
| N35F Y97S | n.d. / n.d. / n.d. | n.d. | 1/9 (3.57) |
| S25G N37R Q95T | n.d. / 3.28 / n.d. | 3.28 | 2/9 (4.01) |
| S58H H98E P101H | 2.03 / 2.01 / 1.99 | 2.01 | 4/9 (4.61) |
| N37D S58H | n.d. / n.d. / n.d. | n.d. | 0/9 |
| N35Q T59H Q95W | 2.45 / 2.08 / 2.94 | 2.49 | 3/9 (3.62) |
| L30K E32D N37H | 3.68 / 2.59 / 2.79 | 3.02 | 0/9 |
| V29E T59K H98F | 0.35 / 0.34 / 0.31 | 0.33 | 1/9 (3.56) |
| K24S S28Q S38I | n.d. / n.d. / n.d. | n.d. | 1/9 (4.74) |
| W56F R99H L100W | n.d. / 5.03 / 4.96 | 4.99 | 2/9 (4.18) |
| S33H A40Y S62A | n.d. / n.d. / n.d. | n.d. | 0/9 |
| K36V A40W S103D | n.d. / n.d. / n.d. | n.d. | 0/9 |
| N35P A40Y Q95I | n.d. / n.d. / n.d. | n.d. | 1/9 (2.96) |
| K24C W56Q R60N | n.d. / 5.23 / n.d. | 5.23 | 4/9 (4.84) |
| L30K A40Q R60P | n.d. / n.d. / n.d. | n.d. | 1/9 (3.11) |
| K24W N37G A40Q | n.d. / n.d. / 3.46 | 3.46 | 1/9 (4.03) |
| S33R R34P Q96P | 2.27 / 2.35 / 2.67 | 2.43 | 0/9 |
| W56C T59W R99Y | n.d. / 4.96 / 5.05 | 5.00 | 6/9 (4.19) |
| Y31L K36D Q95T | 0.02 / 0.41 / 0.32 | 0.25 | 0/9 |
| S28Q S38W Q96I | n.d. / n.d. / n.d. | n.d. | 1/9 (3.83) |
| A40V E61T | 5.33 / n.d. / n.d. | 5.33 | 5/9 (3.86) |
| S38D Y97A | 3.64 / n.d. / 4.32 | 3.98 | 2/9 (4.18) |
| Y31S N37R E61V | 2.09 / 1.48 / 1.75 | 1.77 | 2/9 (3.79) |
| S26F R34A Y97V | 2.94 / n.d. / n.d. | 2.94 | 2/9 (4.48) |
| S25T A57F | 3.88 / 3.13 / 5.14 | 4.05 | 5/9 (3.71) |
| L30K Y31C R34A | 1.88 / 1.78 / 1.53 | 1.73 | 5/9 (3.52) |
| S25F R60E L102W | 4.62 / n.d. / 4.01 | 4.32 | 4/9 (4.18) |
| W56P S62H R99P | n.d. / 5.30 / 3.91 | 4.61 | 2/9 (4.19) |
| V29T E32Q L102R | 1.72 / 1.50 / 1.46 | 1.56 | 0/9 |
| N37G S58C T59P | 3.60 / n.d. / 4.19 | 3.89 | 2/9 (4.05) |
| N35Q H98M | 4.14 / n.d. / n.d. | 4.14 | 3/9 (3.77) |
| R34A K36H | 0.44 / 0.61 / 0.60 | 0.55 | 0/9 |
| S62L Q96F | 3.67 / n.d. / n.d. | 3.67 | 1/9 (4.20) |
| V29S K36Q N37E | n.d. / n.d. / n.d. | n.d. | 2/9 (4.35) |
| S25G A40D A57H | 4.34 / 3.42 / 3.92 | 3.89 | 4/9 (4.43) |
| L30F R60A P101V | n.d. / 4.23 / n.d. | 4.23 | 0/9 |
| E32D W56T H98D | 0.61 / 0.87 / 0.80 | 0.76 | 5/9 (4.38) |
| E61T R99F P101Q | n.d. / 2.99 / n.d. | 2.99 | 0/9 |
| N35H K36W R99F | n.d. / 1.78 / n.d. | 1.78 | 0/9 |
| L100N | n.d. / n.d. / n.d. | n.d. | 3/9 (4.24) |

Repeated from above, the 5 best binders with a signal in all replicates:

changes	log10 Kd, replicates	log10 Kd (nM), mean	empty controls
Y31L K36D Q95T	0.02 / 0.41 / 0.32	0.25	0/9
V29E T59K H98F	0.35 / 0.34 / 0.31	0.33	1/9 (3.56)
R34A K36H	0.44 / 0.61 / 0.60	0.55	0/9
E32D W56T H98D	0.61 / 0.87 / 0.80	0.76	5/9 (4.38)
R34L E61C H98T	0.67 / 0.89 / 0.86	0.81	2/9 (5.37)

In this assay the parent's reference entry averaged 0.65; its copy inside this library read 1.68.
Nonspecific signal, from three strains lacking the peptide, appeared in 18% of pairings of library AAYL50, centred on 4.19 (5% of these signals below 2.99); values are not corrected for it. The control count says in how many pairings with the empty strains this scFv gave a signal, with their mean in brackets.